Data on two compounds can be found in ChEMBL document CHEMBL1158075, “Brominated cyclodipeptides from the marine sponge Geodia barretti as selective 5-HT ligands” (J Nat Prod, 2006).

Sequences of proteins named here, by UniProt entry; tags and fusion partners are left off. A change or cut given only in a name is not applied to a line headed by its entry.
UniProt P28221: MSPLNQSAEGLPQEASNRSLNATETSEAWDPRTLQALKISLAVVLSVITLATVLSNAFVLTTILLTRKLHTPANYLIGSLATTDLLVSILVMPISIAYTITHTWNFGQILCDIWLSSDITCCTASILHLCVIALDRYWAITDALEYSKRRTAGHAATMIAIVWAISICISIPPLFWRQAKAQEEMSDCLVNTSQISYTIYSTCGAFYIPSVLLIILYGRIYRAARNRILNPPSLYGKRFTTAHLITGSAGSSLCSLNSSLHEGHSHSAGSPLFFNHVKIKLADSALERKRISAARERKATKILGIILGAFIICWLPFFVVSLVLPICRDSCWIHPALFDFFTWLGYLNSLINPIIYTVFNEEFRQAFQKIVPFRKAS

As usually defined, the Ki is the equilibrium dissociation constant of an inhibitor or competing ligand from its target. A higher Ki goes with lower affinity.

This experiment concerns the target 5-hydroxytryptamine receptor 1D (Homo sapiens, UniProt P28221). As to the kind of experiment: Displacement of [1,2-3H]5-carboxamidotryptamine from human 5HT1D receptor expressed in HEK293 cells. In kind it is cell-based.

The structures appear in SMILES notation. Bounds are passed on as bounds.

On to `NC(N)=NCCC[C@@H]1NC(=O)[C@H](Cc2c[nH]c3cc(Br)ccc23)NC1=O`, for which the Ki is over 10 µM. Consider `N=C(N)NCCC[C@@H]1NC(=O)/C(=C/c2c[nH]c3cc(Br)ccc23)NC1=O` [BARETTIN], for which the Ki was over 10 µM.
